From US10913710B2, “Benzene disulfonamide for the treatment of cancer” (priority 2017, dated 2021)

How the values were obtained:
[1] = in vitro; conditions: human, Caco-2, pH 6.5
Description: Caco-2 Permeability Assay:
The compound concentration was measured in the receiver as well as the donor well.

[2] = tested on: colorectal cancer cell lines DiFi, HCT-116, Hke3, Hkh2, HT29 and SW480; assay: Real time cell analysis (RTCA) proliferation of colorectal cancer cell lines; type: cell-based, human; conditions: even at lower micromolar concentrations
Description: and SW480 cell lines are maintained in DMEM (Dulbecco's modified Eagle medium, Sigma-Aldrich Biochemie GmbH, Taufkirchen, Germany) supplemented with 10% FCS (fetal calf serum), 2 mM L-glutamine (Sigma-Aldrich Biochemie GmbH, Taufkirchen, Germany), and 1% non-essential amino acids (NEAA; Sigma-Aldrich Biochemie GmbH, Taufkirchen, Germany), at 37° C. and 5% CO2 in a humidified incubator. HT29 cells (ATCC, American Type Culture Collection, […], Va., USA) are maintained in Ham's medium, supplemented with 10% FCS (fetal calf serum) and 1 mM L-glutamine (Sigma-Aldrich Biochemie GmbH, Taufkirchen, Germany), at 37° C. and 5% CO2 in a humidified incubator. RTCA measurements of HT29, […] and SW480 cell lines were performed using 16-well E-plates on a Dual Plate xCELLigence instrument (Roche Applied Science, Indianapolis, Ind.) in a humidified incubator at 37° C. with 5% CO2. This device measures the impedance-based cell index (CI), Continuous impedance measurements are monitored every 15 min for up to 300 hours. Blank measurements are performed with growth medium. Depending on the cell line 1×10^4-2×10^4 cells are plated in each well of 16-well E-plate for short-term measurements and 0.75-2×10^3 cells/well for long-term measurements. […]

[3] = tested on: MiaPaCa-2 cells; assay: Real time cell analysis (RTCA) proliferation; type: cell-based, human; conditions: even at submicromolar concentrations
Description: (§1) Panc-TU-1, MiaPaCa-2, PANC-1 and BxPC-3 cell lines were cultured in DMEM supplemented with 10% fetal calf serum, 1% L-glutamine (PAN-Biotech) and 1% non-essential amino acids (PAN-Biotech). The cells were maintained in a humidified incubator at 37° C. and 5% CO2. For microscopy, cells were seeded in four-well Lab-Tek chambers (Thermo Scientific) in DMEM without phenol red, supplemented with 25 mM HEPES. Transfection was performed with either Effectene (Qiagen) or Lipofectamine 2000 (Invitrogen). RTCA measurements of Panc-TU-1, MiaPaCa-2, PANG-1 and BxPC-3 cell lines were performed on a Dual Plate xCELLigence instrument (Roche Applied Science, Indianapolis, Ind.). This device measures a dimensionless cell index which is based on impedance. Depending on the cell line 5×10^3-7.5×10^3 cells were seeded in each well of 16-well E-plate. After seeding, cells were allowed to settle for 15 min at room temperature before insertion into the xCELLigence instrument in a humidified incubator at 37° C. with 5% CO2. The cells were treated with the small-molecule inhibitors compound 16 (Deltasonamide 1) or compound 19 (Deltasonamide 2) after a growth period of approximately 24 h. […] The impedance was measured in 15 min intervals for up to 100 h. Assays were performed in triplicates, each containing two technical duplicates. The cell index was normalized to 1 at the time point of drug administration.

[4] = tested on: Panc-Tu-I cells; assay: Real time cell analysis (RTCA) proliferation; type: cell-based, human; conditions: even at submicromolar concentrations
Description: as §1

efflux ratio at 2 h, 10 μM [1]: 8.8
Compound: CNc1nccc(CN(CC2CCNCC2)S(=O)(=O)c2ccc(S(=O)(=O)N(Cc3ccc(Cl)cc3)C3CCCC3)cc2)n1 [Compound 16, N1-(4-Chlorobenzyl)-N1-cyclopentyl-N4-((2-(methylamino)pyrimidin-4-yl)methyl)-N4-(piperidin-4-ylmethyl)benzene-1,4-disulfonamide]
proliferation (RTCA) [2]: strongly reduced proliferation | proliferation (RTCA) [3]: strongly reduced proliferation | proliferation (RTCA) [4]: strongly reduced proliferation
